{"source": "patent US10912809B2", "about": "“Enhancer for catechin uptake in enterocytes” (AMOREPACIFIC CORPORATION, priority 2016, dated 2021)", "origin": "cited, not measured here", "conditions": "generally known; background art"}
{"substance": "catechin", "values": [{"measurement": "absorbed at a level of intake in the guts", "result": "less than 2%"}]}
